Experimental findings from patent US12247029B2, “Heterocyclic compounds as class II phosphoinositide 3-kinase inhibitors” (Forschungsverbund Berlin e.V., priority 2018, dated 2025) are described below.

By UniProt entry, the sequences of proteins in these tests, tags left out. Where a name states a change or a piece, a line headed by the entry shows the natural chain unless it says otherwise. Residues count along the entry.
UniProt O00443, 299-1686 limits assumed, stated change not applied: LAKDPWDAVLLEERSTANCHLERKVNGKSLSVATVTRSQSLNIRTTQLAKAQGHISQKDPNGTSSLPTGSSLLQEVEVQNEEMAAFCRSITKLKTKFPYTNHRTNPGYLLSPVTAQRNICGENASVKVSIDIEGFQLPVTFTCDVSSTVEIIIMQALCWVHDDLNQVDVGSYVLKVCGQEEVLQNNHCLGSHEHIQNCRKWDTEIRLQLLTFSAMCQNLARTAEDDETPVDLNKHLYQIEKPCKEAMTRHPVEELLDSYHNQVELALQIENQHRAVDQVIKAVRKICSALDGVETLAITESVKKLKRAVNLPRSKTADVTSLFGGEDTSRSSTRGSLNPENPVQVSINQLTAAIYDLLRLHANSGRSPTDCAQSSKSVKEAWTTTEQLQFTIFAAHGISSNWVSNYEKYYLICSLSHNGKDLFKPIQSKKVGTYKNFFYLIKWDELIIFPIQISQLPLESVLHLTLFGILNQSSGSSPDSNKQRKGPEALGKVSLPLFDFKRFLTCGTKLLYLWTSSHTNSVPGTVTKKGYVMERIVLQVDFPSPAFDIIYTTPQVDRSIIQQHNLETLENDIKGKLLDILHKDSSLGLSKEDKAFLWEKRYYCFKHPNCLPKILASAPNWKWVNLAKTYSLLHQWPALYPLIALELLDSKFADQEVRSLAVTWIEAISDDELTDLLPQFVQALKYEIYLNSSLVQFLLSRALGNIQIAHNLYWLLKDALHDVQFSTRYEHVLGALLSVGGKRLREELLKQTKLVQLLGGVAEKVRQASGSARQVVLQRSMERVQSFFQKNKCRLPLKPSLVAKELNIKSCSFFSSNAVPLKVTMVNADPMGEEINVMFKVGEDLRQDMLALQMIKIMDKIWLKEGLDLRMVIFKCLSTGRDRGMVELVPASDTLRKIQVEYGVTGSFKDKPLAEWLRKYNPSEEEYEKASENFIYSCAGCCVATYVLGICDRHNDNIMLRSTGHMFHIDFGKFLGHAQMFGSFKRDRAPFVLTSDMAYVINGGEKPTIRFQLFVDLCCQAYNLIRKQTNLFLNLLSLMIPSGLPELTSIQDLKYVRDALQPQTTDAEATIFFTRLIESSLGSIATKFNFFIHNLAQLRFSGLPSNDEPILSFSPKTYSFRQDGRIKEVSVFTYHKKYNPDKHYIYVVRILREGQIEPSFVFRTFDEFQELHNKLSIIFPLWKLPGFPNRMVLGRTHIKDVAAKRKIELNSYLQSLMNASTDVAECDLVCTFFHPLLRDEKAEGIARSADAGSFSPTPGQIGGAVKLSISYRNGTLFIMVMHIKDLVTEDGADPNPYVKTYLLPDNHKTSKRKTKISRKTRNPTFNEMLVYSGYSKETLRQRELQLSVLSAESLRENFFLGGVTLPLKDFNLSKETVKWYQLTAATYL

“And” between values parts separate entries of the source, which are not always exact repeats. Equal values may be shown once.

By IC50 is commonly meant the concentration at which inhibition is half-maximal.

One experiment addresses PI3KC2α Δ1-298 (Homo sapiens (Human), UniProt O00443). In words: ADP-Glo kinase assay with purified PI3KC2α Δ1-298. The settings on record: read-out: IC50 for PI3KC2α inhibition. How it is done:
Previous studies have shown that PI3KC2α can utilize phosphatidylinositol (PI) or phosphatidylinositol 4-phosphate [PI(4)P] to produce PI(3)P or PI(3,4)P2 respectively but with a preference for PI(3,4)P2 production. To verify that purified PI3KC2α Δ1-298 is active, a radioactive kinase assay was performed with PI as a substrate and different amounts of purified PI3KC2α Δ1-298. The lipid product [PI(3)P] was separated on TLC plates, and the PI(3)P signal was correlated with the amount of PI3KC2α used (FIG. 4A). […] After having confirmed the activity of purified PI3KC2α Δ1-298, an assay suitable for high content screens in multiwell format (ADP-Glo™ assay) was established. The ADP-Glo™ assay has been used for universal detection of ATP hydrolysis. This assay measures ATP hydrolysis occurring during a kinase reaction. For detection, generated ADP is re-converted into ATP with the […] and converted into light by the Ultra-Glo™ Luciferase reagent. The luminescent signal reports kinase activity (FIG. 4B).
The ADP-Glo™ assay was first used to determine the linear correlation range of signal with different amounts of kinase, and then to assess the Kms for ATP and for PI. […] Further optimization of this assay allowed us to carry out medium-to-high throughput screening using low amounts of purified enzyme (at fixed concentrations of: ATP=40 μM, PI=200 μM, PI3KC2α A1−298=10 ng/μl). […]
Background: In ADP-Glo the light output rises with the ADP produced.

The subject of another experiment is HeLa cells. Description: Clathrin-mediated endocytosis of transferrin (transferrin uptake). The settings on record: vs DMSO. How it is done:
To test if the validated compounds are cell membrane permeable and, thus, can be used as medicaments and in cell-based experiments, the inventors analyzed clathrin-mediated endocytosis of transferrin in the presence of PI3KC2α inhibitors or DMSO as a solvent control. […] Similar results were obtained for C2a_Inh_3 (FIG. 8A). Further, the inventors monitored the CCP dynamics in cells with PI3KC2α inhibitor (C2a_Inh3) treatment for 1 h.

`O=C(CSc1nc2nccnc2c(=O)n1CCc1ccccc1)Nc1ccccc1` [Example Compound 22, 2-((4-Oxo-3-phenethyl-3,4-dihydropteridin-2-yl)thio)-N-phenylacetamide]: the IC50 on PI3KC2α Δ1-298 was 760 nM and 500 to 600 nM. Further, the “reduction in transferrin uptake” value in the experiment on HeLa cells is given as 20-30%.

Consider `CC(C)CCn1c(SCC(=O)Nc2ccccc2C(F)(F)F)nc2nccnc2c1=O`, for which, in the experiment on HeLa cells, the “reduction in transferrin uptake” value is reported as 20-30%.
